{"sequences": {"note": "The chains behind the UniProt entries cited, without tags or fusion partners.", "UniProt O00560, whole entry": "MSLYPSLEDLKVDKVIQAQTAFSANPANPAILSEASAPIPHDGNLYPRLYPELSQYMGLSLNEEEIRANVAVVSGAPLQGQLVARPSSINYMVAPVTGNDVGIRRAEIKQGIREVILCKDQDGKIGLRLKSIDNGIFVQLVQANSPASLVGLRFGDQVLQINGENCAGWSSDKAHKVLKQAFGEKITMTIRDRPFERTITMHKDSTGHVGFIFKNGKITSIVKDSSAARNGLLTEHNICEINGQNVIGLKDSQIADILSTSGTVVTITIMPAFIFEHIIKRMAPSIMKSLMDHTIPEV"}, "source": "paper PMC11505911", "about": "“Design and Synthesis of Small Molecule Probes of MDA-9/Syntenin” (Biomolecules, 2024)", "origin": "cited, not measured here", "biological_target": "MDA-9/Syntenin (Homo sapiens, UniProt O00560)", "conditions": "cited from earlier work"}
{"compound": "CC(=O)c1ccc(F)c(-c2ccc(C[C@@H](C(=O)N[C@@H](C)C(=O)O)N3Cc4cc(Br)ccc4C3=O)cc2)c1", "values": [{"measurement": "potency (MDA-9/Syntenin inhibitor)", "result": 400, "unit": "nM"}, {"measurement": "Kd", "setting": "read-out: MDA-9 KD, binding domain PDZ1", "result": 400, "unit": "nM"}]}
